The values below are quoted from earlier work in US20140141213A1, “PHOTOCURABLE INK COMPOSITION, INK JET RECORDING METHOD, RECORDED MATTER, INK SET, INK CARTRIDGE, AND RECORDING APPARATUS” (Seiko Epson Corporation, priority 2009, published 2014).

The conditions of the data set: primary irritation index.

For the substance Glycerin PO-modified triacrylate, the P.I.I is 0.8.
